Assay results: patent US20230183592A1, “SPECIFIC ORGANOPHOSPHORUS COMPOUNDS AS NON-NEUROTOXIC ANTI-WEAR AGENTS” (priority 2020, published 2023)

Amino acid sequences for entries named in this document (tags omitted). Residues count along the entry.
UniProt P81908, whole entry: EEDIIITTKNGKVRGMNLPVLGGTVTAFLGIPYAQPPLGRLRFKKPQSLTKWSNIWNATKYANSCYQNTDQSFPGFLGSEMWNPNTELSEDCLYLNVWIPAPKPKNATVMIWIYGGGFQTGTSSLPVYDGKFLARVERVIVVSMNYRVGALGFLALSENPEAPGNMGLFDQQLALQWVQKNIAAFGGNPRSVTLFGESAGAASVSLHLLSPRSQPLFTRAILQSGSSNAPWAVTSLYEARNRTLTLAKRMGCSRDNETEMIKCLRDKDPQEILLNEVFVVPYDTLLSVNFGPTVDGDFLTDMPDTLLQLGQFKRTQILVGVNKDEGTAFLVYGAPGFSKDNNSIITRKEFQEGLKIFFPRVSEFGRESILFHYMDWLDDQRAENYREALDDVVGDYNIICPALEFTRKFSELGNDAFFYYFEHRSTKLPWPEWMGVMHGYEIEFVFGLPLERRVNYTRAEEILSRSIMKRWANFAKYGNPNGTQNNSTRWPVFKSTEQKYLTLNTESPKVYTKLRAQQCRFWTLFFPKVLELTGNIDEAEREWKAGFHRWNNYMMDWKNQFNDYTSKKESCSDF
UniProt P22303, 32-617 isoform P22303-2 limits assumed: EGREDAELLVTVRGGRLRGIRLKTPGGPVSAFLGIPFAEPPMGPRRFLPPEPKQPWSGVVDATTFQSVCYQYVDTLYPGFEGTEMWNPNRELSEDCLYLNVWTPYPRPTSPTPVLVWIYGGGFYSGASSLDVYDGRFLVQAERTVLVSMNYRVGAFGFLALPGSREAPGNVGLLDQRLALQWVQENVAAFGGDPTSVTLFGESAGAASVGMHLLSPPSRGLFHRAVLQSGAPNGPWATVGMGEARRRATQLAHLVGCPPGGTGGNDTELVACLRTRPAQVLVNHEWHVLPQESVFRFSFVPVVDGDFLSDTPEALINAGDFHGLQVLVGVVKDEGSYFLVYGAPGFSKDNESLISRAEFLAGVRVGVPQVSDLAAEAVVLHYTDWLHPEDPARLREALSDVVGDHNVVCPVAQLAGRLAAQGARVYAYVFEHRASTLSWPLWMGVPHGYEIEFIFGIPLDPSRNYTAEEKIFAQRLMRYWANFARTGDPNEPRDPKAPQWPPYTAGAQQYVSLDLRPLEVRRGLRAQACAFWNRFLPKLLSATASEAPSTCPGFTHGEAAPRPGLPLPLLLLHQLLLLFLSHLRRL

What was measured:
[1] = sum of five 0/1 risk factors, 0 (lack of risk) to 5 (very high multiple risk)
Source text: The last column corresponds to a risk level score for the safety of these molecules for use in oils such as turbine oils and their alleged cabin toxicity. […] A 0 value indicates a lack of risk, and a 5 value indicates a very high multiple risk. For each risk, a factor 0 or 1 is assigned based on whether the value is above or below a threshold.

[2] = target: T1, BuChE from equine serum (eqBuChE) (Equus caballus, UniProt P81908); assay type: biochemical
T1 construct: The BuChE freeze-dried from equine serum (eqBuChE, Sigma Aldrich); purchased Sigma Aldrich; host or cells: equine serum (natural source)
Protocol: (§1) In the extent that the toxic activity of TCP especially involves its action on cholinesterases, the effect of the compounds used according to the invention, as well as comparative compounds, on two cholinesterases was studied. The required concentration values of each compound to inhibit 50% of the activity of two cholinesterases were measured.
(§2) The acetylthiocholine and butyrylthiocholine iodide, and 5,5-dithiobis (2-nitrobenzoic) acid (DTNB) were purchased from Sigma Aldrich (Steinheim, Germany).
(§3) In the procedure, 100 μL of 0.3 mM DTNB dissolved in phosphate buffer, pH 7.4, were added in 96-well plates, followed by 50 μL solution of the test compound and 50 μL enzyme (final 0.05 U). After 5 minutes of pre-incubation at 25° C., the reaction was initiated by injecting 50 μL of 0.1 mM acetyl or butyryl thiocholine iodide solution. The acetyl or butyryl thiocholine hydrolysis was followed by the formation of yellow 5-thio 2-nitrobenzoate anion as the product of the reaction of DTNB with the thiocholine released by the enzymatic hydrolysis of the acetyl or butyryl thiocholine, at a wavelength of 412 nm, using a microplate reader (Synergy 2, Biotek, Colmar, France). The compounds to be tested were dissolved to 5×10^−3M in analytical grade DMSO. Donepezil or tacrine were used as reference standards. The absorption increase rate at 412 nm was determined 4 minutes after the addition of the acetyl or butyryl thiocholine iodide solution. The tests were carried out with a blank containing all the compounds except the acetyl or butyryl thiocholine in order to take into account non-enzymatic reactions.
(§4) The percentage of inhibition due to the presence of the test compounds was calculated using the following expression: […]
(§5) wherein vi is the rate calculated in the presence of the inhibitor, and v0 is the enzymatic activity.
(§6) All the experiments were carried out in n=3.

[3] = target: T2, human erythrocyte AChE (hAChE) (Homo sapiens, UniProt P22303); assay type: biochemical
T2 construct: The human erythrocyte AChE (hAChE, aqueous buffer solution); purchased Sigma Aldrich; host or cells: human erythrocytes (natural source)
Protocol: as §1, §2, §3, §4, §5, §6

[4] = European Chemicals Agency website; cited from earlier work
[5] = equine serum BuChE, Ellman method, 5 min pre-incubation at 25° C., n=3
[6] = human erythrocyte AChE, Ellman method, 5 min pre-incubation at 25° C., n=3

Row | Substance | Risk level [1] | IC50 eqBuChE [2, 5] [µg/mL] | IC50 hAChE [3, 6] [µg/mL] | IC50 eqBuChE [2] [µg/mL] | IC50 hAChE [3] [µg/mL] | ECHA's official data [4]
1 | 2-octyl 1-dodecyl diphenylphosphate [Compound 3] | 0 | 82 | 22 |  |  | 
2 | Tri(4-isopropylbenzoate)phosphate [Compound G] |  |  |  | 145.5 | 15.8 | 
3 | isododecyl diphenylphosphate [Compound 4] |  | 34 | 16 |  |  | 
4 | isohexadecyl diphenylphosphate [Compound 5] |  | 27 |  |  |  | 
5 | isononyl diphenylphosphate [Compound Q] |  | 1.6 | 18.4 |  |  | 
6 | n-dodecyl diphenylphosphate [Compound 2] | 0 | 78 | 28 |  |  | No CMR, no acute toxicity

Read-outs that look alike come from different tables or passages of the source.
